Experimental data published in paper PMC5585256 (Scientific Reports, 2017).

Sequences of proteins named here, by UniProt entry; tags and fusion partners are left off. Residues count along the entry.
UniProt P06276, 29-602 F255A/S315G/A356W/Y360A: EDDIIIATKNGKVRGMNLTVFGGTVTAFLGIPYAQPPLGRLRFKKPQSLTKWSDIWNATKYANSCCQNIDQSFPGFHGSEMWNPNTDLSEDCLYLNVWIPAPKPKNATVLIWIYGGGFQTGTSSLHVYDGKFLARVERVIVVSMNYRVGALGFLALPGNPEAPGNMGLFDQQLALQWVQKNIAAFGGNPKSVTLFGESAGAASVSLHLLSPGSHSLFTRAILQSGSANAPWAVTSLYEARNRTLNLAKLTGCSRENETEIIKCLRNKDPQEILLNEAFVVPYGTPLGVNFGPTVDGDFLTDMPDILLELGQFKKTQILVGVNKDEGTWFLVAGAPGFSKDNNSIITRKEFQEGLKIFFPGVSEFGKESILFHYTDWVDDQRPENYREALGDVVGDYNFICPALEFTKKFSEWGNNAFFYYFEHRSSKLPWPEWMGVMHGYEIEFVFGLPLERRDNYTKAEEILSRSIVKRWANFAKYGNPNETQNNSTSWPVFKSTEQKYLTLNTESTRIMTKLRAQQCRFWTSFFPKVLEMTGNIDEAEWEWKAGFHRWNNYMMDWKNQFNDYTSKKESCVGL
UniProt P06276, 29-602: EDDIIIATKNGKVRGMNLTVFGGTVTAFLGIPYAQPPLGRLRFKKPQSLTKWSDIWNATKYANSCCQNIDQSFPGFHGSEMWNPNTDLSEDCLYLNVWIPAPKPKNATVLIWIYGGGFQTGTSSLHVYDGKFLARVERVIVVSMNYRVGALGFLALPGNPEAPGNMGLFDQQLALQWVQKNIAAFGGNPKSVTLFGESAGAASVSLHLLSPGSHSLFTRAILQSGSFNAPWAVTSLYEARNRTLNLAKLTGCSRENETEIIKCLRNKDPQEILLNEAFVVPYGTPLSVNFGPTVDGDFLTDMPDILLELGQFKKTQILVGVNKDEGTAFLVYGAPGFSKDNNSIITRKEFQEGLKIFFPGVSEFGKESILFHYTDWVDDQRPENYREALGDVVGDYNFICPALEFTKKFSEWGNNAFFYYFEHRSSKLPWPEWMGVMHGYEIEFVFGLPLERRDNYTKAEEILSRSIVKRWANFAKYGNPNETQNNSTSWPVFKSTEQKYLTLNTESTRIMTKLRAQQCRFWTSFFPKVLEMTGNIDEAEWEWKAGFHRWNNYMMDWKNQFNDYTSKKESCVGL
UniProt P06276, 29-602 F255A/S315G/A356W/Y360G: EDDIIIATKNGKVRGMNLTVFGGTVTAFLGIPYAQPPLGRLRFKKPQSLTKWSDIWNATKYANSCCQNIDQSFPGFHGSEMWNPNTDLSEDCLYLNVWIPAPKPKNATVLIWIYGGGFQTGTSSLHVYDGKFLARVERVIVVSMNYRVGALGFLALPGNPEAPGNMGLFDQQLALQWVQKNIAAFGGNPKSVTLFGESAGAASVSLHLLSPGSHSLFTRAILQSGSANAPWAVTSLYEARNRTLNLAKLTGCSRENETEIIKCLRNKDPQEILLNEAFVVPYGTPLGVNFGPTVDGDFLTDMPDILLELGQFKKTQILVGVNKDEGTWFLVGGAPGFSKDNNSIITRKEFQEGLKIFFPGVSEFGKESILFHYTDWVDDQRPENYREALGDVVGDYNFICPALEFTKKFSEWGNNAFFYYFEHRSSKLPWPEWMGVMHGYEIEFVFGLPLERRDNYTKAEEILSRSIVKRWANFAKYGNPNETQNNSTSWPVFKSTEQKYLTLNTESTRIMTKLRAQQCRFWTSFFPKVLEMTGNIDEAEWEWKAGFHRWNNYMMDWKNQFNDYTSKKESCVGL
UniProt P06276, 29-602 A227S/S315G/A356W/Y360G: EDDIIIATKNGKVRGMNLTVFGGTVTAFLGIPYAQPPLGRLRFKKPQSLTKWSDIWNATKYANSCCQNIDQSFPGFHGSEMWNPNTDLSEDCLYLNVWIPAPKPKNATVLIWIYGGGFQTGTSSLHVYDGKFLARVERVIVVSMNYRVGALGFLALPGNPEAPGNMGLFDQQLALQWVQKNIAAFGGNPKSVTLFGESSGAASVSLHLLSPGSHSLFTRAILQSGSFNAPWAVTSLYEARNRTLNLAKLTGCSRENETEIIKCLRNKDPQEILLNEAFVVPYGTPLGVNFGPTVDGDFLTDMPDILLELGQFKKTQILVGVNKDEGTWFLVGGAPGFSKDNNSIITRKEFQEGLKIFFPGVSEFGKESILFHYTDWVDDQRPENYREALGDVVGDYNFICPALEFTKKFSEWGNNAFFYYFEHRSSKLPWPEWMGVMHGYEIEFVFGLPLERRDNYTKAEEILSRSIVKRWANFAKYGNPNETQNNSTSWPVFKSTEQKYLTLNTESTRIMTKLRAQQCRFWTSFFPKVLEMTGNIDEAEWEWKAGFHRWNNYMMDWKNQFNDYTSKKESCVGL
UniProt P06276, 29-602 A227S/F255A/S315G/A356W/Y360G: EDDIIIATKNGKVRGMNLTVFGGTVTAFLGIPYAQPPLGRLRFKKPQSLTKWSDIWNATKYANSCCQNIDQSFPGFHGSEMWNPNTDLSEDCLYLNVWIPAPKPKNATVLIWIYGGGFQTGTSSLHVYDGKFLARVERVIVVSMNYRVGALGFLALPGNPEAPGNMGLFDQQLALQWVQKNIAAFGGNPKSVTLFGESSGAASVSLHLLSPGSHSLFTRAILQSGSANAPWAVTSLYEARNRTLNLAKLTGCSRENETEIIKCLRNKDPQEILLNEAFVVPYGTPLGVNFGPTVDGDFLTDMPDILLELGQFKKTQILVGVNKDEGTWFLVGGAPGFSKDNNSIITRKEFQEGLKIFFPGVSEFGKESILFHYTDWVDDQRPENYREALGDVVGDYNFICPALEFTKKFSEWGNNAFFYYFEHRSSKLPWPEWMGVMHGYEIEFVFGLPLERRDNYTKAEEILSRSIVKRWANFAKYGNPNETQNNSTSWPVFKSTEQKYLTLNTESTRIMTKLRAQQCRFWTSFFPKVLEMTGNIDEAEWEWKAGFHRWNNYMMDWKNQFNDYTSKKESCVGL

Legend:
Format in all cases: biochemical
[1] = molecular target: T1, pBChEV2 (F227A/S287G/A328W/Y332A) (Homo sapiens, UniProt P06276, A356W/F255A/S315G/Y360A); experiment: Inhibition of BTC hydrolysis activity of pBChEV2
T1 construct: hexahistidine (C); barley alpha-amylase signal peptide (N); made in house; host or cells: Nicotiana benthamiana (transient, MagnICON/TMV vector)
Protocol: (§1) To this end, BTC hydrolysis was analyzed following a 30-minute incubation with the inhibitors.
(§2) The four inhibitors were purchased from Sigma (St Louis, MO).
(§3) Preparations of BChE and variants thereof were incubated in 96-well plate format with indicated concentrations of the inhibitors for 30 min at room temperature followed by activity measurements based on modified Ellman assay using 1 mM BTC as the substrate. IC50 values were determined by non-linear regression (GraphPad Prism) fit according to Equation (4).

[2] = molecular target: T2, WT hBChE (human plasma-derived butyrylcholinesterase) (Homo sapiens, UniProt P06276); experiment: Inhibition of BTC hydrolysis activity of WT hBChE
T2 construct: we first compared WT human plasma-derived (hBChE) to pBChE; from tissue; host or cells: human plasma
Protocol: as §1, §2, §3

[3] = molecular target: T3, pBChEV5 (F227A/S287G/A328W/Y332G) (Homo sapiens, UniProt P06276, A356W/F255A/S315G/Y360G); experiment: Inhibition of BTC hydrolysis activity of pBChEV5
T3 construct: hexahistidine (C); barley alpha-amylase signal peptide (N); made in house; host or cells: Nicotiana benthamiana (transient, MagnICON/TMV vector)
Protocol: as §1, §2, §3

[4] = molecular target: T4, pBChEV3 (A199S/S287G/A328W/Y332G) (Homo sapiens, UniProt P06276, A227S/A356W/S315G/Y360G); experiment: Inhibition of BTC hydrolysis activity of pBChEV3
T4 construct: hexahistidine (C); barley alpha-amylase signal peptide (N); made in house; host or cells: Nicotiana benthamiana (transient, MagnICON/TMV vector)
Protocol: as §1, §2, §3

[5] = molecular target: T5, WT pBChE (plant-derived human butyrylcholinesterase) (Homo sapiens, UniProt P06276); experiment: Inhibition of BTC hydrolysis activity of WT pBChE
T5 construct: barley alpha-amylase signal peptide (N); made in house; host or cells: Nicotiana benthamiana (transient, MagnICON/TMV vector, Agrobacterium infiltration)
Protocol: as §1, §2, §3

[6] = molecular target: T6, pBChEV4 (A199S/F227A/S287G/A328W/Y332G) (Homo sapiens, UniProt P06276, A227S/A356W/F255A/S315G/Y360G); experiment: Inhibition of BTC hydrolysis activity of pBChEV4
T6 construct: hexahistidine (C); barley alpha-amylase signal peptide (N); made in house; host or cells: Nicotiana benthamiana (transient, MagnICON/TMV vector)
Protocol: as §1, §2, §3

[7] = log IC50 ± SEM, 30 min incubation, 1 mM BTC, enzyme ~5 mU

SMILES: C=CC[N+](C)(C)c1ccc(CCC(=O)CCc2ccc([N+](C)(C)CC=C)cc2)cc1.[Br-].[Br-] [BW284c51, [4-[5-[4-[dimethyl(prop-2-enyl)azaniumyl]phenyl]-3-oxopentyl]phenyl]-dimethyl-prop-2-enylazanium;dibromide]
- Log IC50 [1, 7]: −3.82 ± 0.11
- Fold increase in sensitivity relative to WT pBChE ([1]; pBChEV2 vs WT pBChE): (2)^* fold
- Fold increase in sensitivity relative to WT pBChE ([2]; WT hBChE vs WT pBChE): (2)^**** fold
- Log IC50 [2, 7]: −3.86 ± 0.03
- Log IC50 [3, 7]: −3.31 ± 0.11
- Fold increase in sensitivity relative to WT pBChE ([3]; pBChEV5 vs WT pBChE): (1)^* fold
- Log IC50 [4, 7]: −4.16 ± 0.10
- Fold increase in sensitivity relative to WT pBChE ([5]; WT pBChE (reference)): (1) fold
- Log IC50 [5, 7]: −3.55 ± 0.05
- Log IC50 [6, 7]: −4.62 ± 0.09

SMILES: CC(C)NP(=O)(NC(C)C)OP(=O)(NC(C)C)NC(C)C [Iso-OMPA, N-[bis(propan-2-ylamino)phosphoryloxy-(propan-2-ylamino)phosphoryl]propan-2-amine]
- IC50 ([1]; read-out: Log IC50 (converted)): 355 nM
- IC50 ([2]; read-out: Log IC50 (converted)): 22400 nM
- IC50 ([3]; read-out: Log IC50 (converted)): 407 nM
- IC50 ([4]; read-out: Log IC50 (converted)): 35500 nM
- IC50 ([5]; read-out: Log IC50 (converted)): 17000 nM
- IC50 ([6]; read-out: Log IC50 (converted)): 13500 nM

SMILES: CCOP(=O)(OCC)Oc1ccc([N+](=O)[O-])cc1 [Paraoxon, diethyl (4-nitrophenyl) phosphate]
- IC50 [1]: 0.204 nM
- IC50 [2]: 9.12 nM
- IC50 [3]: 0.17 nM
- IC50 [4]: 2.24 nM
- IC50 [5]: 7.76 nM
- IC50 [6]: 1.29 nM

Where two headings read alike, the source gives them in different places. Marks after values point to notes of the source that are not given here.
